Source: article PMC10215740, “Concentrations of Co-Administered Meropenem and Vancomycin in Spinal Tissues Relevant for the Treatment of Pyogenic Spondylodiscitis—An Experimental Microdialysis Study” (Antibiotics, 2023)

Assay: Plasma and spinal tissue pharmacokinetics by microdialysis after single-dose co-administered i.v. meropenem and vancomycin
Conditions: pigs n = 8, mean (95%CI)
Text: Eight female pigs (Danish Landrace breed, weight 78–82 kg) were included. In general anaesthesia, microdialysis catheters were placed in the third cervical (C3) vertebral cancellous bone, the C3-C4 intervertebral disc, paravertebral muscle, and adjacent subcutaneous tissue. Plasma samples were obtained as a reference. Abiding by the recommendations of replacement, reduction, and refinement (the 3 Rs) when conducting animal studies, the data sampled in extrathecal spinal tissues in the present study are derived from animals where lower extremity data were reported previously. […] The dose and mode of administration used were in accordance with the clinical practice at our institution. Sampling was conducted for 8 h.
(Figure 3). The microdialysis catheters used were CMA 70 (membrane length 10 and 20 mm, molecular mass cut of 20 kDa; M Dialysis AB, Stockholm, Sweden). Through an anterolateral approach, the C2, C3, and C4 vertebrae were exposed. Using a 2 mm drill, a 25 mm drill hole was made into the C3 vertebra in which a 20 mm microdialysis catheter was placed. Afterward, with aid from a splitable microdialysis introducer (M Dialysis AB, Stockholm, Sweden), a 10 mm microdialysis catheter was positioned in the C3-C4 intervertebral disc, and a 20 mm microdialysis catheter was positioned in both the exposed paravertebral muscle and adjacent subcutaneous tissue. Correct positioning of the microdialysis catheters in the vertebra and the intervertebral disc was verified by fluoroscopy. The catheters were connected to precision pumps (CMA 107; M Dialysis AB, Stockholm, Sweden) and perfused with 0.9% NaCl solution at a flow rate of 1 μL/min.
After catheter placement, microdialysis sampling was initiated with a tissue-equilibration period of 20 min prior to the antibiotic intravenous administration. […] Microdialysates were collected at 30 min intervals for the first 4 h, and at 60 min intervals for the last 4 h, resulting in a total of 12 samples during an 8-h dosing interval. At the midpoint of each sampling interval, blood samples were collected from a central venous catheter for reference. The blood samples were stored at 5 °C for a maximum of 6 h before being centrifuged (room temperature, 3000 g, 10 min), and plasma aliquots were made. […] The recovery sample was later used for individual catheter calibration and calculation of absolute tissue concentrations. […]
The free drug concentration of meropenem in plasma was quantified using ultra-high performance liquid chromatography (UHPLC).

Q: With `CN[C@H](CC(C)C)C(=O)N[C@H]1C(=O)N[C@@H](CC(N)=O)C(=O)N[C@H]2C(=O)N[C@H]3C(=O)N[C@H](C(=O)N[C@H](C(=O)O)c4cc(O)cc(O)c4-c4cc3ccc4O)[C@H](O)c3ccc(c(Cl)c3)Oc3cc2cc(c3O[C@@H]2O[C@H](CO)[C@@H](O)[C@H](O)[C@H]2O[C@H]2C[C@](C)(N)[C@H](O)[C@H](C)O2)Oc2ccc(cc2Cl)[C@H]1O` [Vancomycin, vancomycin] as the molecule, how does the Tmax (paravertebral muscle, microdialysis, single i.v. 1000 mg meropenem + 1000 mg vancomycin co-administered) read?
A: Its Tmax is 126 (79; 172) min.

Q: What about the Tmax (plasma, single i.v. 1000 mg meropenem (10 min) + 1000 mg vancomycin (100 min) co-administered) of the same molecule?
A: Its Tmax is 92 (45; 138) ^e min.

Q: What about the Tmax (subcutaneous tissue, microdialysis, single i.v. 1000 mg meropenem + 1000 mg vancomycin co-administered) of the same molecule?
A: Its Tmax is 135 (88; 181) min.

Q: And the Tmax (vertebral cancellous bone, microdialysis, single i.v. 1000 mg meropenem + 1000 mg vancomycin co-administered)?
A: Its Tmax is 174 (128; 221) min.

Marks after values point to notes of the source that are not given here.
